# Data reported in article PMC4266452, “Prediction of Thorough QT study results using action potential simulations based on ion channel screens” (Journal of Pharmacological and Toxicological Methods, 2014).
# Tests used:
# [1] = Plasma concentration (Cmax) during the TQT study, total and calculated free; settings: for Cmax TOTAL: calculated from ng/mL and molecular weight
# [2] = ref Gintant (2011); cited from earlier work
# [3] = ref Gintant (2011), cited from earlier work
substance,measurement,setting,value
Maraviroc,Free plasma concentration,[1]; Cmax high,175.2 nM
same,Cmax TOTAL,[1]; Cmax high,726.25 nM
same,Cmax FREE,"[1]; Cmax high, calculated with PPB",90.00 ng/mL
same,Cmax FREE,"[1]; Cmax high, calculated with PPB and molecular weight",175.23 nM
same,Free plasma concentration,[1]; Cmax low,44.39 nM
same,Cmax TOTAL,[1]; Cmax low,184.97 nM
same,Cmax FREE,"[1]; Cmax low, calculated with PPB",22.80 ng/mL
same,Cmax FREE,"[1]; Cmax low, calculated with PPB and molecular weight",44.39 nM
same,Cmax FREE,"[1]; third line below Cmax high, not labelled",219 ng/mL and 426.37 nM
same,PPB (percent plasma binding),[2],76% PPB
same,Cmax TOTAL,[3]; Cmax high,373.00 ng/mL
same,Cmax TOTAL,[3]; Cmax low,95.00 ng/mL

# “And” between values parts separate entries of the source, which are not always exact repeats. Equal entries are not always repeated. Where two headings read alike, the source gives them in different places.
